From US9637768B2, “Method for preparing sialic acid derivative” (priority 2013, dated 2017)

How the values were obtained:
[1] = test system: CC(=O)N[C@H]1[C@H]([C@H](O)[C@H](O)CO)O[C@](OP(=O)(O)OC[C@H]2O[C@@H](n3ccc(N)nc3=O)[C@H](O)[C@@H]2O)(C(=O)O)C[C@@H]1O; assay: purified protein, by the assay type; details: other: wild type
[2] = test system: OC[C@H]1O[C@@H](O[C@H]2[C@H](O)[C@@H](O)C(O)O[C@@H]2CO)[C@H](O)[C@@H](O)[C@H]1O; assay: purified protein, by the assay type; details: other: wild type

For “Photobacterium damselae (ATCC29690) α-2,6-sialyltransferase (α2,6PdST), wild type (Photobacterium damselae)”, the Km [1] was 5.47 mM and the Km [2] was 9.03 mM.
